# In PubChem BioAssay AID686978 (National Center for Advancing Translational Sciences (NCATS), 2013):
# Where “and” joins values, the source holds several entries; their conditions need not be identical. Equal entries are not always repeated. This is a selection; strong and weak results do not stand in their true shares. Results filed as inconclusive are left out. The source holds several records for some structures; these can differ, active in one and inactive in another. Calls of active or inactive are those of the source. The call rests on the fitted dose curve; in most records, active means well fitted inhibition curve with a large enough effect; inconclusive means small, poorly fitted or top-dose-only effect; inactive means flat fitted curve, though single readings scatter.
# Assay: qHTS for Inhibitors of human tyrosyl-DNA phosphodiesterase 1 (TDP1): qHTS in cells in absence of CPT; further: nearly all actives have a fitted effect of over 55% in size
# Conditions: DT40 Tdp1-/- hTDP1 cells, no CPT, ATP luminescence, 48 h; series mostly up to 46.2 µM; activity change, negative = growth inhibition: at the top concentration
# On the % scale 0 is the no-effect control and ±100 the full control effect; potency means the concentration at half of the fitted maximal effect.
SMILES,"activity change, negative = growth inhibition",Potency
CN(C(=O)Cc1ccccc1)[C@@H]1CC[C@]2(CCCO2)C[C@H]1N1CCCC1,inactive: 0.544%,
CCOP1(=S)c2c(C)nn(CCC#N)c2N=C(c2ccc(F)cc2)N1C (stereo not given),inactive: -27.8%,
Nc1ccccc1[As](=O)(O)c1ccccc1,inactive: -11.1%,
O=C(O)COc1ccc([As](=O)(O)O)cc1[N+](=O)[O-],inactive: -9.55%,
O=P(Nc1nccs1)(Oc1ccccc1)Oc1ccccc1,inactive: -7.38%,
COc1cc(C2NCCC3(OCCO3)C2(C)C)cc(OC)c1OC (stereo not given),inactive: -13.5%,
CCCOP(=S)(Nc1nc(N)cc(=O)[nH]1)OCCC,inactive: 5.1%,
Nc1cccc2c([As](=O)(O)O)cccc12,inactive: -5.05%,
Cc1ccc(NCCc2c([N+](=O)[O-])cc([N+](=O)[O-])cc2[N+](=O)[O-])cc1,,active: 18.4 µM
Cc1cccc(OCC(=O)OC2CN3CCC2CC3)c1 (stereo not given),inactive: 10.3%,
O=[As](O)(c1cccc(O)c1)c1cccc(O)c1,inactive: 3.54%,
CS(=O)(=O)c1ccc(Cl)c(NC(=O)COC(=O)C(O)(c2ccccc2)c2ccccc2)c1,inactive: -9.18%,
O=[As](O)(O)c1cccnc1,inactive: 3.47%,
COc1cc(C(=O)NCC2(N3CCOCC3)CCCCC2)cc(Cl)c1OC(C)C,,active: 13 µM
O=C(OC1CN2CCC1CC2)c1ccc(Cl)cc1 (stereo not given),inactive: -2.76%,
CC1(CBr)Cn2c(nc3ccccc3c2=O)S1 (stereo not given),,active: 18.4 µM
CC(C)/C=N\N=C(\N)N[N+](=O)[O-],inactive: -2.45%,
COc1ccccc1CNC(=O)COC(=O)C(O)(c1ccccc1)c1ccccc1,inactive: -6.86%,

SMILES,"activity change, negative = growth inhibition",Potency
O=P1(N(CCCl)CCCl)NCCC(C(F)(F)F)O1 (stereo not given),inactive: -0.929%,
Clc1n[nH]nc1-c1nn[nH][15n]1,inactive: -6.77%,
CCOP(=O)(Nc1ccc(C)cn1)OCC,inactive: -13%,
CN(CCCl)Cc1cc(Cl)c(NC2=NCCN2)c(Cl)c1,,inactive and active: 5.17 µM
O=P1(Nc2ccccn2)COc2ccccc2OC1,inactive: -9.08%,
CCC1=CC2Cc3nc4ccc(Cl)cc4c(N)c3C(C1)C2 (stereo not given),,active: 9.2 µM
O=[As](O)(c1cccs1)c1cccs1,inactive: 9.64%,
Cc1ccc(OCC(=O)OC2CN3CCC2CC3)cc1 (stereo not given),inactive: -1.14%,
NS(=O)(=O)c1cccc(NC(=O)COC(=O)C(O)(c2ccccc2)c2ccccc2)c1,,active: 4.11 µM
Nc1cccc([As](=O)(O)c2ccccc2)c1,inactive: 3.23%,
O=P1(Nc2ncccn2)COc2ccccc2OC1,inactive: 0.138%,
CCCC1OP(=O)(Nc2ccccc2)OCC1CC (stereo not given),inactive: 1.35%,
CN(C)C1(CNC(=O)c2ccc(S(C)(=O)=O)cc2)CCCCC1,inactive: -9.46%,
CC1CCC(C(C)C)C(OP(=O)(Nc2ccccn2)c2ccccc2)C1 (stereo not given),,active: 18.4 µM
Cc1ccc(C(=O)OC2CN3CCC2CC3)cc1 (stereo not given),inactive: -7.63%,
COc1cc([N+](=O)[O-])ccc1[N+](=O)[O-],,active: 6.31 µM
Cc1nn(-c2ccccc2)c2c1P(=O)(N1CCOCC1)N(C)C(c1ccccc1)=N2 (stereo not given),inactive: 12.4%,
